Test [1] relates to guinea pig hippocampal synaptosomes. The test can be described thus: ACh release from guinea pig hippocampal synaptosomes (β-amyloid inhibition of K+-evoked release). The class given is cell-based. As for the experimental part:
ACh release from guinea pig hippocampal synaptosomes: Synaptosomes (P2 fraction) were prepared from guinea pig hippocampus as described previously and re-suspended in a Krebs-Ringer solution containing 0.1 μM [methyl-^3H]choline chloride (NEN, Boston, Mass.) and incubated at 37° C. for 30 min. Unincorporated choline was removed by washing and the synaptosomes were resuspended in Krebs-Ringer solution to 10 mg/mL. ACh release from synaptosomes was measured using the parallel superfusion chambers (Hugo Sachs Elektronik, March-Hugstetten, Germany) according to that described earlier (Wang, H. -Y. et al Neuropeptides 1999; 33, 197-205). The synaptosomal suspension (250 μL) was placed in each of the superfision chambers between two circular pieces of GF/B filters (Whatman, England). The chambers were perfused with oxygenated Krebs-Ringer containing 1 μM physostigmine hemisulfate at a flow rate of 0.5 mL/min. The onset of superfusion was defined as time zero (to). Starting 30 min after t0, fractions of the effluent were collected 12 times at 10-minute intervals.
The tissues were treated with peptides and ACh release was evoked by superfusing with 65 mM K^+-Krebs-Ringer (made by equimolar replacement of NaCl with KCl) for 30 seconds. […] Twenty minutes prior to K^+ stimulation (S2, S3 or S4), tissues were superfused with Krebs-Ringer solution that contained various concentrations of compound or vehicle (control) for 30 min. After perfusion, 5 mL of Scintsafe PlusTM 50% (Fisher Scientific) was added to the synaptosomes (on filter) and aliquots of the superfusates (0.5 mL). The amount of ^3H in the superfusate samples was measured by liquid scintillation spectrometry.
Tritiurn efflux into the superfusate was calculated as the fraction of ^3H content in the synaptosomes at the onset of the respective collection period. To calculate the amount of ^3H present in the superfusate after K^+ stimulation, the estimated basal efflux (the average of the 10-minute fractions immediately before and after each stimulation) was subtracted from the total efflux during the 10-minute fraction which began with the 30-second second K^+ stimulus. This difference was then used to calculate the percent of K^+-evoked release of ACh.
Data are expressed as the mean fractional ^3H release±S.E.M. Statistical differences between treatments were tested by Student's t test, two-tailed or the two-factor ANOVA as appropriate. Individual differences in the dose-response curve were evaluated by the Newman-Keuls multiple comparison test.

The next test deals with Biotin-huma7-5. On the set-up: species or system human. As to conditions: read-out: IC50, 125I-α-BTX binding to Biotin-huma7-5.
Setting [2] is: 100 μM, attenuation of β-amyloid's inhibition on potassium-evoked ACh release.
Setting [3] is: attenuation of β-amyloid's inhibition on potassium-evoked ACh release, 1 nM β-amyloid1-42, read-out: Inh ACh rel IC50.

Read-outs that look alike come from different tables or passages of the source.

Take `CC(=O)N[C@@H](CO)C(=O)N[C@@H](CCC(=O)O)C(=O)N[C@@H](C)C(=O)N[C@@H](Cc1ccccc1)C(=O)N[C@@H](Cc1ccc(O)cc1)C(=O)N[C@@H](CCC(=O)O)C(=O)N[C@@H](CS)C(=O)N[C@@H](CS)C(=O)N[C@@H](CCCCN)C(=O)N[C@@H](CCC(=O)O)C(=O)N1CCC[C@H]1C(N)=O` [compound 1]: in test [1] (setting [2]), the “ACh rel % Inh @ 100 μM” value is recorded as 70%. Further, the results for the IC50 (in test [1] (3 h); with Biotin-huma7-5) were 277 nM and 9.6 µM, respectively.

Regarding `CC(=O)N[C@@H](CO)C(=O)N[C@@H](CCC(=O)O)C(=O)N[C@@H](CCCNC(=N)N)C(=O)N[C@@H](Cc1ccccc1)C(=O)N[C@@H](Cc1ccc(O)cc1)C(=O)N[C@@H](CCC(=O)O)C(=O)N[C@@H](CS)C(=O)N[C@@H](C)C(=O)N[C@@H](CCCCN)C(=O)N[C@@H](CCC(=O)O)C(=O)N1CCC[C@H]1C(N)=O` [compound 2], in test [1] (setting [2]), the “ACh rel % Inh @ 100 μM” value is listed as 85%. In addition, the IC50 was 165 nM in test [1] (3 h) and greater than 100 µM with Biotin-huma7-5.

`CC(=O)N[C@@H](CO)C(=O)N[C@@H](CCC(=O)O)C(=O)N[C@@H](CCCNC(=N)N)C(=O)N[C@@H](Cc1ccccc1)C(=O)N[C@@H](Cc1ccc(O)cc1)C(=O)N[C@@H](CCC(=O)O)C(=O)N[C@@H](CS)C(=O)N[C@@H](CS)C(=O)N[C@@H](CCCCN)C(=O)N[C@@H](C)C(=O)N1CCC[C@H]1C(N)=O` [compound 3]: in test [1], the “ACh rel % Inh @ 100 μM” value was found to be 75%. In addition, the IC50 was 426 nM in test [1] (3 h) and greater than 100 µM in the test with Biotin-huma7-5.

On to `CC[C@H](C)[C@H](NC(=O)CNC(C)=O)C(=O)N1CCC[C@H]1C(=O)NCC(=O)N[C@@H](CCCCN)C(=O)N[C@@H](CCCNC(=N)N)C(=O)N[C@@H](CO)C(=O)N[C@@H](CCC(=O)O)C(=O)N[C@@H](CCCNC(=N)N)C(=O)N[C@@H](Cc1ccccc1)C(=O)N[C@@H](Cc1ccc(O)cc1)C(=O)N[C@@H](CCC(=O)O)C(=O)N[C@@H](CS)C(=O)N[C@@H](CS)C(=O)N[C@@H](CCCCN)C(N)=O` [compound 4], for which the “ACh rel % Inh @ 100 μM” value in test [1] (setting [2]) came to 73%. For the same compound, the IC50 in test [1] (3 h) came to 1210 nM.

For `CC[C@H](C)[C@H](NC(C)=O)C(=O)N1CCC[C@H]1C(=O)NCC(=O)N[C@@H](CCCCN)C(=O)N[C@@H](CCCNC(=N)N)C(=O)N[C@@H](CO)C(=O)N[C@@H](CCC(=O)O)C(=O)N[C@@H](CCCNC(=N)N)C(=O)N[C@@H](Cc1ccccc1)C(=O)N[C@@H](Cc1ccc(O)cc1)C(=O)N[C@@H](CCC(=O)O)C(=O)N[C@@H](CS)C(=O)N[C@@H](CS)C(=O)N[C@@H](CCCCN)C(=O)N[C@@H](CCC(=O)O)C(=O)N1CCC[C@H]1C(=O)N[C@@H](Cc1ccc(O)cc1)C(=O)N1CCC[C@H]1C(N)=O` [compound 5], the “ACh rel % Inh @ 100 μM” value in test [1] (setting [2]) is listed as 79%. For the same compound, the IC50 in test [1] (3 h) was determined as 710 nM.

`CC[C@H](C)[C@H](NC(C)=O)C(=O)N1CCC[C@H]1C(=O)NCC(=O)N[C@@H](CCCCN)C(=O)N[C@@H](CCCNC(=N)N)C(=O)N[C@@H](CO)C(=O)N[C@@H](CCC(=O)O)C(=O)N[C@@H](CCCNC(=N)N)C(=O)N[C@@H](Cc1ccccc1)C(=O)N[C@@H](Cc1ccc(O)cc1)C(=O)N[C@@H](CCC(=O)O)C(=O)N[C@@H](CS)C(=O)N[C@@H](CS)C(=O)N[C@@H](CCCCN)C(=O)N[C@@H](CCC(=O)O)C(=O)N1CCC[C@H]1C(=O)N[C@@H](Cc1ccc(O)cc1)C(=O)N1CCC[C@H]1C(=O)N[C@@H](CC(=O)O)C(=O)N[C@H](C(N)=O)C(C)C` [compound 6]: the “ACh rel % Inh @ 100 μM” value in test [1] (setting [2]) was determined as 73%. For the same compound, the figures for the IC50 (in test [1] (3 h); with Biotin-huma7-5) were 626 nM and 0.2 µM, respectively.

On to `CC(=O)N[C@@H](CO)C(=O)N[C@@H](CCC(=O)O)C(=O)N[C@@H](CCCNC(=N)N)C(=O)N[C@@H](Cc1ccccc1)C(=O)N[C@@H](Cc1ccc(O)cc1)C(=O)N[C@@H](CCC(=O)O)C(=O)N[C@@H](CS)C(=O)N[C@@H](CS)C(=O)N[C@@H](CCCCN)C(=O)N[C@@H](CCC(=O)O)C(=O)N1CCC[C@H]1C(N)=O` [compound 7], for which the “ACh rel % Inh @ 100 μM” value in test [1] (setting [2]) came out at 89%. The IC50 in test [1] (3 h) is 125 nM; with Biotin-huma7-5, 19 µM.

On to `CSCC[C@H](NC(=O)[C@@H](NC(=O)[C@@H](NC(=O)[C@@H](NC(=O)[C@H](Cc1ccccc1)NC(=O)[C@@H](NC(=O)[C@@H](NC(=O)[C@H](CC(=O)O)NC(=O)[C@@H]1CCCN1C(=O)[C@H](Cc1ccc(O)cc1)NC(=O)[C@@H]1CCCN1C(=O)[C@H](CCC(=O)O)NC(=O)[C@H](CCCCN)NC(=O)[C@H](CS)NC(=O)[C@H](CS)NC(=O)[C@H](CCC(=O)O)NC(=O)[C@H](Cc1ccc(O)cc1)NC(C)=O)C(C)C)[C@@H](C)O)[C@@H](C)O)C(C)C)[C@@H](C)O)C(=O)N[C@@H](CCCNC(=N)N)C(N)=O` [compound 8], for which the “ACh rel % Inh @ 100 μM” value in test [1] (setting [2]) stood at 65%. For the same compound, in test [1] (3 h), the IC50 worked out at 1000 nM.

As to `CC(=O)N[C@@H](C)C(=O)N[C@@H](CCC(=O)O)C(=O)N[C@@H](CCCNC(=N)N)C(=O)N[C@@H](Cc1ccccc1)C(=O)N[C@@H](Cc1ccc(O)cc1)C(=O)N[C@@H](CCC(=O)O)C(=O)N[C@@H](CS)C(=O)N[C@@H](CS)C(=O)N[C@@H](CCCCN)C(=O)N[C@@H](CCC(=O)O)C(=O)N1CCC[C@H]1C(N)=O` [compound 10], the “ACh rel % Inh @ 100 μM” value in test [1] (setting [2]) is listed as 15%. Besides, the figures for the 50% inhibitory concentration (IC50) (in test [1] (3 h); in the test on Biotin-huma7-5) were greater than 10000 nM and 15 µM, respectively.

With `CC(=O)N[C@@H](CO)C(=O)N[C@@H](C)C(=O)N[C@@H](CCCNC(=N)N)C(=O)N[C@@H](Cc1ccccc1)C(=O)N[C@@H](Cc1ccc(O)cc1)C(=O)N[C@@H](CCC(=O)O)C(=O)N[C@@H](CS)C(=O)N[C@@H](CS)C(=O)N[C@@H](CCCCN)C(=O)N[C@@H](CCC(=O)O)C(=O)N1CCC[C@H]1C(N)=O` [compound 11], the “ACh rel % Inh @ 100 μM” value in test [1] stood at 13%. Also, the results for the half-maximal inhibitory concentration (IC50) (in test [1] (3 h); in the test on Biotin-huma7-5) were greater than 10000 nM and 8.4 µM, respectively.

As to `N=C(N)NCCC[C@H](NC(=O)[C@H](CCC(=O)O)NC(=O)[C@@H](N)CO)C(=O)N[C@@H](Cc1ccccc1)C(=O)N[C@@H](Cc1ccc(O)cc1)C(=O)N[C@@H](CCC(=O)O)C(=O)N[C@@H](CS)C(=O)N[C@@H](CS)C(=O)N[C@@H](CCCCN)C(=O)N[C@@H](CCC(=O)O)C(=O)N1CCC[C@H]1C(=O)O` [compound 19], the “ACh rel % Inh @ 100 μM” value in test [1] (setting [2]) was determined as 24%. The compound further had an IC50 in test [1] (3 h) greater than 10000 nM.

Take `CC(=O)N[C@@H](Cc1ccc(O)cc1)C(=O)N[C@@H](CCC(=O)O)C(=O)N[C@@H](CS)C(=O)N[C@@H](CS)C(N)=O` [compound 20]: the “ACh rel % Inh @ 100 μM” value in test [1] (setting [2]) worked out at 62%. The same compound came in with an IC50 in test [1] (3 h) of less than 10000 nM.

As for `CC(=O)N[C@@H](Cc1c[nH]cn1)C(=O)N[C@@H](CO)C(=O)N[C@H](C(=O)N[C@H](C(=O)N[C@@H](Cc1ccc(O)cc1)C(=O)N[C@@H](CO)C(=O)N[C@@H](CS)C(=O)N[C@@H](CS)C(=O)N1CCC[C@H]1C(=O)N[C@@H](CC(=O)O)C(=O)N[C@H](C(N)=O)[C@@H](C)O)[C@@H](C)O)C(C)C` [compound 21], in test [1] (setting [2]), the “ACh rel % Inh @ 100 μM” value is 10%. In addition, the IC50 in test [1] (setting [3]) is greater than 10000 nM.

With `CC[C@H](C)[C@H](NC(=O)[C@H](CCC(=O)O)NC(=O)[C@H](C)NC(=O)[C@H](CS)NC(=O)[C@H](CS)NC(=O)[C@H](CCC(=O)O)NC(=O)[C@H](Cc1ccc(O)cc1)NC(=O)[C@H](CCCCN)NC(=O)[C@H](CCCNC(=N)N)NC(=O)[C@@H](NC(=O)[C@H](CC(N)=O)NC(C)=O)[C@@H](C)O)C(N)=O` [compound 22], the “ACh rel % Inh @ 100 μM” value in test [1] (setting [2]) amounted to 16%.

Turning to `CC[C@H](C)[C@H](NC(=O)[C@H](CCC(=O)O)NC(=O)[C@H](C)NC(=O)[C@@H]1CSSC[C@H](NC(=O)[C@H](CCC(=O)O)NC(=O)[C@H](Cc2ccc(O)cc2)NC(=O)[C@H](CCCCN)NC(=O)[C@H](CCCNC(=N)N)NC(=O)[C@@H](NC(=O)[C@H](CC(N)=O)NC(C)=O)[C@@H](C)O)C(=O)N1)C(N)=O` [compound 23], the “ACh rel % Inh @ 100 μM” value in test [1] (setting [2]) came out at 16%.

`CC[C@H](C)[C@H](NC(=O)[C@H](CC(=O)O)NC(=O)[C@@H]1CCCN1C(=O)[C@H](Cc1ccc(O)cc1)NC(=O)[C@@H](NC(=O)[C@H](CCC(=O)O)NC(=O)[C@H](C)NC(=O)[C@H](CS)NC(=O)[C@H](CS)NC(=O)[C@H](CCC(=O)O)NC(=O)[C@H](Cc1ccc(O)cc1)NC(=O)[C@H](CCCCN)NC(=O)[C@H](CCCNC(=N)N)NC(=O)[C@@H](NC(=O)[C@H](CC(N)=O)NC(=O)[C@H](Cc1ccc(O)cc1)NC(=O)[C@@H](NC(=O)CNC(=O)[C@@H](NC(=O)[C@H](C)NC(C)=O)C(C)C)[C@@H](C)O)[C@@H](C)O)[C@@H](C)CC)C(N)=O` [compound 24]: the “ACh rel % Inh @ 100 μM” value in test [1] (setting [2]) amounted to 15%. Besides, the IC50 in test [1] (setting [3]) was greater than 10000 nM.

Consider `CC(=O)N[C@@H](Cc1ccccc1)C(=O)N[C@@H](Cc1ccc(O)cc1)C(=O)N[C@@H](CCC(=O)O)C(=O)N[C@@H](CS)C(=O)O` [compound 26], for which the “ACh rel % Inh @ 100 μM” value in test [1] (setting [2]) turned out to be 54%.

The term IC50 denotes the midpoint of a concentration-inhibition curve.

The record behind these values is patent US20030092613A1, “Alpha7 nicotinic receptor peptides as ligands for beta amyloid peptides” (priority 2000, published 2003).
